Source: patent publication US8703784B2, “Substituted pyrazolo[1,5-a]pyrido[3.2-e]pyrimidin-6-one inhibitors of mammalian target of rapamycin” (Merck Sharp & Dohme Corp., priority 2010, dated 2014)

Biological target: mTOR enzyme (Homo sapiens, UniProt P42345)
Assay: mTOR Kinase Assay
Settings: read-out: mTOR Activity; 5 μM ATP, 0.1 μM GSTS6K substrate; tested form: 2HCl
Procedure: The mTOR assay buffer contains 10 mM hepes (pH 7.4), 50 mM NaCl, 100 μg/ml BSA, 50 mM B-glycerophosphate, 10 mM MnCl2 and 0.5 mM DTT. 20 ng of mTOR enzyme is preincubated with the compound for 10 minutes. 5 μM ATP and 0.1 μM GSTS6K is added. The reaction is incubated for one hour at 30° C. Anti phospho p70S6K (about 1.7 ng/well) and anti GSTXL665 (1:1 Ratio with the substrate GSTS6K) are added after incubating. The plates are read at least 2 hours after adding the anti phospho p70S6K and the anti GSTXL665.
Dose-response curves were plotted from inhibition data generated, each in duplicate, from 8 point serial dilutions of inhibitory compounds. Concentration of compound was plotted against % kinase activity, calculated by CPM of treated samples divided by CPM of untreated samples. To generate IC50 values, the dose-response curves were then fitted to a standard sigmoidal curve and IC50 values were derived by nonlinear regression analysis.

## CC(NC(=O)C(C)(CO)CO)c1nc2c(-c3cnc4ccc(F)cc4c3)cnn2c2c1C(=O)CCN2 (stereo not shown)
  IC50: 10 to 100 nM
